Assays:
[1] = tested on: AChE; experiment: AChE hydrolytic activity in cortex and hippocampus of treated rats; assay type: in vivo, rat; settings: n = 3-4; for Cortex AChE activity: rat cortex; for Hippocampus AChE activity: rat hippocampus
[2] = tested on: AChE-R mRNA; experiment: Fluorescent in situ hybridization of AChE-R mRNA in rat brain; assay type: in vivo; settings: rat cortex, CA1, CA3; compared to PG/S alone or DFP
[3] = tested on: AChE; experiment: Sucrose gradient sedimentation of cortical AChE (G1/G4 ratio); assay type: in vivo; settings: rat cortex

For `CCCCCCCC[n+]1cccc(OC(=O)N(C)C)c1.[Br-]`, the “Cortex AChE activity” value ([1]; 3 hr post-treatment) was 65 ± 17 nmol/min/mg, the “Cortex AChE activity” value ([1]; 24 hr post-treatment) was 71 ± 14 nmol/min/mg and the “Hippocampus AChE activity” value ([1]; 3 hr post-treatment) was 87 ± 3.8 nmol/min/mg. The “Hippocampus AChE activity” value ([1]; 24 hr post-treatment) was 96 ± 3.5 nmol/min/mg, the “R:S ratio of AChE mRNA labeling” value [2] was “lowered the R:S ratio” and the “G1/G4 levels of cortical AChE” value [3] was “reduced”.

— US20040058357A1, “System and method for assaying drugs” (priority 2003, published 2004)
